From patent publication US20240376099A1, “COMPOUNDS AND COMPOSITIONS AS INHIBITORS OF ENDOSOMAL TOLL-LIKE RECEPTORS” (Novartis AG, priority 2016, published 2024)

Amino acid sequences for entries named in this document (tags omitted). Residues count along the entry.
UniProt Q9NR97, 27-1041 limits assumed: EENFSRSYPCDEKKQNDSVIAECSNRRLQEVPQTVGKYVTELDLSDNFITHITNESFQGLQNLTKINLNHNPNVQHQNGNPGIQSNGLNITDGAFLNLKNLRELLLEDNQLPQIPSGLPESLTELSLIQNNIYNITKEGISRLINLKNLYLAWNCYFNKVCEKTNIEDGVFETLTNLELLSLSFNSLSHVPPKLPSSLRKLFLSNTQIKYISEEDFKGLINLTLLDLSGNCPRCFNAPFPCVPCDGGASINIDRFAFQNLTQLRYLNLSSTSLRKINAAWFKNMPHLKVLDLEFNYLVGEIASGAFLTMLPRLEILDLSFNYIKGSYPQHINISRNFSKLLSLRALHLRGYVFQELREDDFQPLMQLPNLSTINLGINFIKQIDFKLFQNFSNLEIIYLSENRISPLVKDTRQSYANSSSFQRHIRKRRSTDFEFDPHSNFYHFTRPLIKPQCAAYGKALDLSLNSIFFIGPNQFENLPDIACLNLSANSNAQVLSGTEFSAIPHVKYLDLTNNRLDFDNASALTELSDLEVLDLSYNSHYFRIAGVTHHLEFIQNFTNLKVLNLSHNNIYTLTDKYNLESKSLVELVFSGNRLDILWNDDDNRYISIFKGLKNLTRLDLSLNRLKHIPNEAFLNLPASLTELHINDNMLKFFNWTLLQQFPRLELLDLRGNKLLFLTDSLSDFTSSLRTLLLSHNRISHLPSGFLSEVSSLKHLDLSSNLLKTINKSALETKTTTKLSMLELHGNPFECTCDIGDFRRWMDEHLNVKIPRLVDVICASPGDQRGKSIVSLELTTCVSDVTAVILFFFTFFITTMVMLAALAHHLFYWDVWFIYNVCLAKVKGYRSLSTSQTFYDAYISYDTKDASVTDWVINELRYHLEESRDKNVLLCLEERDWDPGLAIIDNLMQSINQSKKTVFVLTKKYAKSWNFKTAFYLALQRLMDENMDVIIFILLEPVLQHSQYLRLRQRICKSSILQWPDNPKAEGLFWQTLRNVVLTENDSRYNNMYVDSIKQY
UniProt Q9NR96, 26-1032 limits assumed: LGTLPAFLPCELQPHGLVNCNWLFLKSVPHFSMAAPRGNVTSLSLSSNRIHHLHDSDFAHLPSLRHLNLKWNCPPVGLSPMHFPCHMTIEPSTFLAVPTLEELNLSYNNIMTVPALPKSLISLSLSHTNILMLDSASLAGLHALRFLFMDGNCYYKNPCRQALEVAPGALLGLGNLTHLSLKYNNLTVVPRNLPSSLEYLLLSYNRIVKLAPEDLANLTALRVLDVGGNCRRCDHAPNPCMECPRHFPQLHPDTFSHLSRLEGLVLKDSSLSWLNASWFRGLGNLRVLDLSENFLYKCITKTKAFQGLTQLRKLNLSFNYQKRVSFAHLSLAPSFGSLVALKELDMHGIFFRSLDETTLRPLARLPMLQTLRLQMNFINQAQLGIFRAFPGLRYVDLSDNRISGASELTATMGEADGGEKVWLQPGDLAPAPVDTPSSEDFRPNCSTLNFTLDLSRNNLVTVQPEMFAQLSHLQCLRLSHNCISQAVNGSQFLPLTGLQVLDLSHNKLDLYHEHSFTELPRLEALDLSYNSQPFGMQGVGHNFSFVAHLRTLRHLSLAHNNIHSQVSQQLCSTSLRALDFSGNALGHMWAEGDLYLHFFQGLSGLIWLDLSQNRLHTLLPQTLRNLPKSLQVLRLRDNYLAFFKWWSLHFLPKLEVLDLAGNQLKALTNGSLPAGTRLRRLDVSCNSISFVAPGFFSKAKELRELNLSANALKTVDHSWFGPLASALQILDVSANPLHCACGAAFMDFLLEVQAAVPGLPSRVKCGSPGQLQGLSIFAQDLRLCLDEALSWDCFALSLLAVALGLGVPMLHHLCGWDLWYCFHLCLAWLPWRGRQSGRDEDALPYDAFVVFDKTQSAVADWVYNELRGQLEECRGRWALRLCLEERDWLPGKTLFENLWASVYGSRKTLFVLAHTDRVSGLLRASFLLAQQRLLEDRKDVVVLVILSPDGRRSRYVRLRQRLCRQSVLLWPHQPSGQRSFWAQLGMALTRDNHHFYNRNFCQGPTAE

Columns and labels:
TLR8 = TLR8 (Homo sapiens, UniProt Q9NR97); experiment: huPBMC TLR8 Antagonist IL-6 TR-FRET Assay; settings: read-out: huPBMC TLR8 Antagonist IL-6 TR-FRET Assay IC50; human PBMCs stimulated with ssRNA40 1 μg/ml (DOTAP), 14-16 hrs; IL-6 TR-FRET read-out
Procedure: (§1) Compounds were generally serially diluted (1/3) in DMSO and plated on sterile 384 well tissue culture plates and stored until ready for use. Each ten-point dilution was typically plated in triplicate in parallel rows.
(§2) Fresh blood was collected from normal human donors underwritten informed consent in heparinized syringes on the morning of the assay. The blood was diluted in RPMI-1640 medium and the white blood cells were separated from red blood cells by centrifugation (800 g 15′ 0 acceleration, 0 brake) on a Ficoll cushion. Peripheral blood mononuclear cells (PBMCs) were separated from platelets by a series of low-speed centrifugations (1000RPM 10′) in PBS+5% HI—FBS and 1 mM EDTA. Purified PBMCs were re-suspended in assay medium (RPMI-1640 w Glutamax (Invitrogen) supplemented with 5% HI—FBS, 10 mM HEPES, 50 uM β-mercaptoethanol, and 100 mG/L penicillin/streptomycin cocktail). Viable PBMCs were counted on a hemacytometer and kept on ice until ready for plating.
(§3) A 4× concentration (4 ug/ml or 40 ug/ml for TLR8 or TLR7 assays, respectively) of the TLR7/8 agonist ssRNA40 (IDT) was complexed with 10% DOTAP (Roche) in assay medium for 30 min prior to addition to the PBMC suspension (5 million cells/ml). After addition, the final concentration of ssRNA40 in the TLR7/8 stimulated PBMC suspension was 1 μg/ml for TLR8 assay, and 10 μg/mL for the TLR7 assay. […]

TLR9 = TLR9 (Homo sapiens, UniProt Q9NR96); experiment: huPBMC TLR9 Antagonist IFNα Assay; settings: read-out: huPBMC TLR9 Antagonist IFNα Assay IC50; human PBMCs stimulated with ODN2216 0.3 μM, 14-16 hrs; IFNα2b AlphaLISA read-out
Procedure: as §1, §2, §3

COC(C)(C)CNC12CCC(Cn3nc(C)c4c3CCN(c3cc(C)nc5c3cnn5C)C4)(CC1)CC2
IC50 (TLR8): 71 nM | IC50 (TLR9): 2640 nM
